## scFv variants of Ab-14 (heavy chain) against a SARS-CoV-2 spike peptide

The target is the same throughout: PDVDLGDISGINAS, from the HR2 region of SARS-CoV-2 spike.

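AAYL49 was designed without a model: most single CDR substitutions and a random sample of double and triple ones. The scFvs were displayed on barcoded MATa yeast, the peptide on MATalpha yeast. Pairs that bind mate more often; barcode pairs of the diploids are counted by sequencing. A regression on co-assayed BCL2-family reference pairs converts the normalised counts of each replicate to an apparent Kd. There are three technical replicates.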

The variants keep the light chain, the linker and the frameworks of Ab-14 (scFv order VH, a (GGGGS)3 linker, VL).
VH: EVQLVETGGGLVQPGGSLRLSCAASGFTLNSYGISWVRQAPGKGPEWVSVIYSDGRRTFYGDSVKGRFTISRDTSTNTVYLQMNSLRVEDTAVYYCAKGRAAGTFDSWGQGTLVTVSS
VL: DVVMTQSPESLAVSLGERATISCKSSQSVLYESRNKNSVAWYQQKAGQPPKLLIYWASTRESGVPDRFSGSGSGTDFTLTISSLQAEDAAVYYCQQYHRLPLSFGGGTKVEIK

Each variant is given by its three heavy chain CDRs, as the data file delimits them; those of the parent are GFTLNSYGIS, VIYSDGRRTFYGDSVK, GRAAGTFDS.
Scale: log10 of Kd in nM, estimated from mating counts; low values are strong binders.
Replicates are averaged; those with no signal do not enter the mean.
"nd" marks a missing value. The strain was present, yet no cells mated with the target were sequenced in that replicate, which points to weak or no binding.
Nonspecific signal, from three strains lacking the peptide, appeared in 15% of pairings of library AAYL49, centred on 4.06 (5% of these signals below 2.83); values are not corrected for it. For each scFv, signals with the empty controls are counted beside the result.
For reference, the parent read 0.65 as the reference entry and 4.11 (one replicate of three) as a member of this library.

The variant WFTLNSYGIS / VIYSDGRRTFRGHSVK / GRAAGTFDS showed nd, nd, nd (controls 1 of 9).
The variant GFTLNSYTIS / VTYSDGRRTFYGDSVK / GRAHGTFDS showed 4.06, nd, nd (controls 1 of 9).
The variant GQTLNSYGIS / VIYSGGRRTFYGDSVK / GRACGTFDS showed nd, 4.10, nd (controls 4 of 9).
The variant GITLNSYGIS / VIYSDGRRTFYFDSVK / GRAAGTFDS showed nd, nd, nd (controls 1 of 9).
The variant HDTLNSYGIS / VGYSDGRRTFYGDSVK / GRAAGTFDS showed nd, nd, nd (controls 4 of 9).
The variant GFTINEYGIS / VIYSDGRRTFYGDSVK / GRAAGTFDS showed 0.40, 0.58, 0.65 (mean 0.54; controls 5 of 9).
The variant GFTLNSYGIS / VIYSDGRRTFFGDCVK / GRAAGYFDS showed nd, nd, nd (controls 0 of 9).
The variant GFTLNSYEIT / VIYSDGRRTFYGDSVK / GRADGTFDS showed nd, nd, nd (controls 1 of 9).
The variant GFTLNSVYIS / VTYSDGRRTFYGDSVK / GRAAGTFDS showed nd, nd, nd (controls 1 of 9).
The variant GFTLNSYGIS / VYYSDHRRTFYGDSVK / GRAAGTEDS showed nd, nd, nd (controls 0 of 9).
The variant GQTLNSYGIS / VIYSDGQRTTYGDSVK / GRAAGTFDS showed 6.04, 4.04, 4.05 (mean 4.71; controls 3 of 9).
The variant GFVLNSYGIS / VIYNDGRDTFYGDSVK / GRAAGTFDS showed 4.54, nd, nd (controls 3 of 9).
The variant GFTLNSYYIS / VIYSDGRRTFHGDSVK / GRAAGTFDM showed 3.13, nd, nd (controls 1 of 9).
The variant GFTLNSYGIS / VIYSDGRRTFYGDYVK / GLAAGTFFS showed nd, 1.67, 0.93 (mean 1.30; controls 0 of 9).
The variant GRTLNSYGQS / VIYSDGRRTFYGDSVK / GRAAGTFTS showed nd, 4.95, 5.59 (mean 5.27; controls 4 of 9).
The variant GFTLNRYGIS / VIYSDQRRTFYGYSVK / GRAAGTFDS showed nd, nd, nd (controls 0 of 9).
The variant GFTLNSYHIS / VIYSDGRRTFYGDSVK / GRRKGTFDS showed 3.78, nd, nd (controls 2 of 9).
The variant GFTLLSYGIS / MIYSDGRRTFHGDSVK / GRAAGTFDS showed 4.04, nd, nd (controls 2 of 9).
The variant GFTLQSYGVS / VIYSDGRRTFYGDSVK / GRAAGTFDL showed 0.56, 0.97, 0.77 (mean 0.77; controls 0 of 9).
The variant GFTYNSYGIS / VQYSDGRRTGYGDSVK / GRAAGTFDS showed nd, nd, nd (controls 1 of 9).
The variant GFTLNSYLIS / VIYSDGRRTFYGDSVK / MRASGTFDS showed nd, nd, nd (controls 0 of 9).
The variant GFTLNSYGIS / VIYSYGRLTFYVDSVK / GRAAGTFDS showed nd, nd, nd (controls 0 of 9).
The variant GFTLNNIGIS / VIYSDGRRTFSGDSVK / GRAAGTFDS showed nd, nd, nd (controls 2 of 9).
The variant GFTLPSYGIR / VIYSDGRRNFYGDSVK / GRAAGTFDS showed nd, nd, nd (controls 1 of 9).
The variant GFTLNSYGKS / VIYSDGRRTFYGSSVK / GRAAGTFDE showed nd, nd, nd (controls 1 of 9).
The variant GFTLNSYGIS / VIDSDGRRDCYGDSVK / GRAAGTFDS showed nd, nd, nd (controls 0 of 9).
The variant GFTLNSYGIS / VIYKDGRRTFMGDSVK / GVAAGTFDS showed nd, nd, nd (controls 0 of 9).
The variant GFTLNSYGIS / VIYRFGRRTFYGDSVK / GRAAGNFDS showed 4.83, nd, nd (controls 1 of 9).
The variant GFTLNSYGIS / VIYSDGRRTFYGDSVV / GRAAGWKDS showed 3.72, nd, nd (controls 0 of 9).
The variant GFTLISYGIS / VIYSDGRRTFYGDSVK / GRAAGTTNS showed nd, nd, nd (controls 0 of 9).
The variant GFTLNSYGIV / VITSDGRRTFYGDSVK / GRAPGTFDS showed 4.12, 4.50, nd (mean 4.31; controls 4 of 9).
The variant GFMLNSYGAS / VIYSDGRRTFYNDSVK / GRAAGTFDS showed nd, nd, nd (controls 0 of 9).
The variant GFTLNSYGIS / VIYLDGRRTFMGDSVK / GRAAGTFDS showed nd, nd, nd (controls 0 of 9).
The variant GFTLNSYGIS / VIYTDGRRTFYGDSVV / GRAAGTFDS showed 3.42, 2.48, 4.24 (mean 3.38; controls 4 of 9).
The variant QFTLNSYGIS / VIYSDGRRTFYGDSVK / GRDATTFDS showed nd, nd, nd (controls 1 of 9).
The variant GEGLNSYGIS / VIYSDGRRTMYGDSVK / GRAAGTFDS showed 2.57, 2.04, 3.35 (mean 2.65; controls 1 of 9).
The variant GFTLNSYGTS / VIYSDGRRTFEGDSVK / GRAAGTLDS showed nd, nd, nd (controls 0 of 9).
The variant GFTLNSYGIS / VIYPDGRRTFYGHSVD / GRAAGTFDS showed 2.02, 1.99, 2.60 (mean 2.20; controls 0 of 9).
The variant GFTLNSYGIS / FGYSDGPRTFYGDSVK / GRAAGTFDS showed nd, nd, nd (controls 1 of 9).
The variant GFTLNSYGIS / VIYSDGRRHNSGDSVK / GRAAGTFDS showed nd, nd, nd (controls 3 of 9).
The variant NFTLNSYGIS / VIYSDGRRTFYGDSVS / GRAAGTFDS showed 3.07, nd, 2.49 (mean 2.78; controls 1 of 9).
The variant HFTLNSYGIS / VIYSICRRTFYGDSVK / GRAAGTFDS showed nd, nd, nd (controls 0 of 9).
The variant GFTGNSYGIS / VIYSDGRRTFNGDSVK / GRAAGTFDS showed nd, nd, 3.57 (controls 0 of 9).
The variant GFRQNSYGIS / VIYSDGRRTFYGDSVK / GRIAGTFDS showed 2.91, 2.37, 3.28 (mean 2.85; controls 2 of 9).
The variant GFTLNSYGIS / VIPSDGRRFFYGDSVK / GRAAGTFDS showed nd, 3.76, nd (controls 1 of 9).
The variant GFTLNSYGIS / VIYADGRRTFYGDSRK / GRAATTFDS showed nd, nd, 4.93 (controls 1 of 9).
The variant GFTLNSYGIS / VIYSDGQRTMYGDSVK / GRAAGTCDS showed nd, nd, nd (controls 5 of 9).
The variant GFTLNSYGID / VIYSDGRRTFYGDSVK / GRFARTFDS showed nd, nd, nd (controls 0 of 9).
The variant GFPLNSYGIS / VIYSDGRRDFYGDSVM / GRAAGTFDS showed nd, 3.14, nd (controls 1 of 9).
The variant GQTLNSYGIS / VIYSDRRRTFYFDSVK / GRAAGTFDS showed 5.40, nd, nd (controls 3 of 9).
The variant GFTLNSYGIS / MEYSDGRRTFYSDSVK / GRAAGTFDS showed 6.68, 4.56, 3.72 (mean 4.99; controls 2 of 9).

Source: Engelhart et al. 2022 (doi:10.1038/s41597-022-01779-4), MIT Lincoln Laboratory and A-Alpha Bio; data file from the FLAb repository.